Values quoted from earlier work, collected in US10130658B2, “Method of ex vivo enhancement of immune cell activity for cancer immunotherapy with a small molecule ablative compound” (Provectus Pharmatech, Inc., priority 2015, dated 2018).

Test system: melanoma

For “IL-2: interleukin-2, non-specific cytokine given intralesionally”, the systemic tumor-specific response (human, in vivo) is listed as “unable to elicit a systemic tumor-specific response” and the complete responses (treated melanoma patients) is listed as 62.5%.
